# Experimental data published in paper PMC10899660, “Global fungal-host interactome mapping identifies host targets of candidalysin” (Nature Communications, 2024).
# Key:
# FaDu cells = assay: Alkaline comet assay, FaDu cells; format: cell-based; conditions: 10 µM, 4 h
# Experimental: Alkaline comet analysis was performed with some modifications to evaluate DNA damage. Briefly, following the termination of the treatment, 1.5 × 10^4 cells were mixed with 180 μl 0.5% low-melting-point agarose. The mixture was spread on pre-coated slides with normal agarose (1.5% in PBS) and cooled on ice to solidify. The slides were immersed in pre-cooled lysis solution (2.5 M sodium chloride, 100 mM EDTA, 10 mM Tris, 1% Triton-X 100, and 10% DMSO, pH 10) at 4 °C for 1 h, and placed in a gel electrophoresis apparatus containing electrophoresis buffer (300 mM NaOH and 1 mM EDTA) for 20 min to unwind the DNA, followed by electrophoresis for 20 min at 25 V / 300 mA on ice. Slides were neutralized (0.4 M Tris-HCl, pH 7.5) for 15 min and stained with 4’,6-diamidino-2-phenylindole (DAPI, Beyotime, #C1002). The comet images, taken by fluorescence microscopy (Olympus), were analyzed using CASP 1.2.3b1.
# BALB/c mice = assay: Micronucleus PCE test (MN PCE‰) in mice; format: in vivo; conditions: for MN PCE‰ / genotoxic damage compared to WT strain infection: single candidalysin dose vs fungal colonization
# Experimental: On the day before infection (Day 0), mice (n = 6) were sedated by intraperitoneal injection of 75 mg/kg sodium pentobarbital. After anesthetized, for C. albicans infected group, a sterile cotton swab soaked in 10^7 CFU/mL of C. albicans culture in PBS was placed on the tongue for 75 min, and for candidalysin treated group, a sterile cotton swab soaked in 70 μM candidalysin solution was placed on the tongue for 75 minutes. For the control group (n = 6), a swab soaked in PBS was used. After Day 5, mice were euthanized, the tongue was excised and collected for CFU counting, histopathology and immunohistochemistry analysis. The results of immunohistochemistry were quantified by histochemistry scores.
# Bone marrow cells were removed from the femurs and tibias of BALB/c mice and processed with FBS. Prior to be enumerated under the microscope, the cells were air-dried naturally, fixed with methanol and stained with Giemsa solution (Sigma, 1.09203). Counts of at least 4,000 polychromatic erythrocytes (PCE) per piece were required to calculate the micronucleus PCE rate.
smiles,measurement,setting,value
CC[C@H](C)[C@H](NC(=O)CNC(=O)[C@H](CCSC)NC(=O)[C@@H](NC(=O)[C@@H](NC(=O)CNC(=O)[C@@H](NC(=O)[C@@H](NC(=O)[C@@H](N)CO)[C@@H](C)CC)[C@@H](C)CC)[C@@H](C)CC)[C@@H](C)CC)C(=O)N[C@@H](CC(C)C)C(=O)NCC(=O)N[C@@H](CC(N)=O)C(=O)N[C@H](C(=O)N1CCC[C@H]1C(=O)N[C@@H](CCC(N)=O)C(=O)N[C@H](C(=O)N[C@H](C(=O)N[C@@H](CCC(N)=O)C(=O)N[C@H](C(=O)N[C@H](C(=O)N[C@@H](CCSC)C(=O)N[C@@H](CO)C(=O)N[C@H](C(=O)N[C@H](C(=O)N[C@@H](CCCCN)C(=O)N[C@@H](C)C(=O)N[C@@H](Cc1ccccc1)C(=O)N[C@@H](CCCCN)C(=O)NCC(=O)N[C@@H](CC(N)=O)C(=O)N[C@@H](CCCCN)C(=O)O)C(C)C)[C@@H](C)CC)[C@@H](C)CC)[C@@H](C)CC)[C@@H](C)CC)C(C)C)[C@@H](C)CC [Ece1-III],incidence of double-strand DNA breaks (DSBs),FaDu cells,significantly increased
same,MN PCE (‰),BALB/c mice; compared to the control / sham infected group,significant increase
same,MN PCE (‰),"BALB/c mice; mice, Fig. 5c source data, replicate 1",17.4651 ‰
same,MN PCE / (PCE + NCE),"BALB/c mice; mice, Fig. 5c source data, replicate 1 (counts)",70/4008
same,MN PCE (‰),"BALB/c mice; mice, Fig. 5c source data, replicate 2",31.984 ‰
same,MN PCE / (PCE + NCE),"BALB/c mice; mice, Fig. 5c source data, replicate 2 (counts)",128/4002
same,MN PCE (‰),"BALB/c mice; mice, Fig. 5c source data, replicate 3",29.4985 ‰
same,MN PCE / (PCE + NCE),"BALB/c mice; mice, Fig. 5c source data, replicate 3 (counts)",120/4068
same,MN PCE (‰),"BALB/c mice; mice, Fig. 5c source data, replicate 4",13.3796 ‰
same,MN PCE / (PCE + NCE),"BALB/c mice; mice, Fig. 5c source data, replicate 4 (counts)",54/4036
same,MN PCE (‰),"BALB/c mice; mice, Fig. 5c source data, replicate 5",27.114 ‰
same,MN PCE / (PCE + NCE),"BALB/c mice; mice, Fig. 5c source data, replicate 5 (counts)",118/4352
same,MN PCE (‰),"BALB/c mice; mice, Fig. 5c source data, replicate 6",23.5525 ‰
same,MN PCE / (PCE + NCE),"BALB/c mice; mice, Fig. 5c source data, replicate 6 (counts)",96/4076
same,MN PCE‰ / genotoxic damage compared to WT strain infection,BALB/c mice,genotoxic damage to the same extent as fungal colonization
same,MN PCE‰ / genotoxic damage compared to WT strain infection,BALB/c mice; listed as Clys,no statistically significant difference
